Our source for the inhibition values is PubChem BioAssay AID604 (The Scripps Research Institute Molecular Screening Center, 2007).

Amino acid sequences for entries named in this document (tags omitted).
UniProt O75116, whole entry: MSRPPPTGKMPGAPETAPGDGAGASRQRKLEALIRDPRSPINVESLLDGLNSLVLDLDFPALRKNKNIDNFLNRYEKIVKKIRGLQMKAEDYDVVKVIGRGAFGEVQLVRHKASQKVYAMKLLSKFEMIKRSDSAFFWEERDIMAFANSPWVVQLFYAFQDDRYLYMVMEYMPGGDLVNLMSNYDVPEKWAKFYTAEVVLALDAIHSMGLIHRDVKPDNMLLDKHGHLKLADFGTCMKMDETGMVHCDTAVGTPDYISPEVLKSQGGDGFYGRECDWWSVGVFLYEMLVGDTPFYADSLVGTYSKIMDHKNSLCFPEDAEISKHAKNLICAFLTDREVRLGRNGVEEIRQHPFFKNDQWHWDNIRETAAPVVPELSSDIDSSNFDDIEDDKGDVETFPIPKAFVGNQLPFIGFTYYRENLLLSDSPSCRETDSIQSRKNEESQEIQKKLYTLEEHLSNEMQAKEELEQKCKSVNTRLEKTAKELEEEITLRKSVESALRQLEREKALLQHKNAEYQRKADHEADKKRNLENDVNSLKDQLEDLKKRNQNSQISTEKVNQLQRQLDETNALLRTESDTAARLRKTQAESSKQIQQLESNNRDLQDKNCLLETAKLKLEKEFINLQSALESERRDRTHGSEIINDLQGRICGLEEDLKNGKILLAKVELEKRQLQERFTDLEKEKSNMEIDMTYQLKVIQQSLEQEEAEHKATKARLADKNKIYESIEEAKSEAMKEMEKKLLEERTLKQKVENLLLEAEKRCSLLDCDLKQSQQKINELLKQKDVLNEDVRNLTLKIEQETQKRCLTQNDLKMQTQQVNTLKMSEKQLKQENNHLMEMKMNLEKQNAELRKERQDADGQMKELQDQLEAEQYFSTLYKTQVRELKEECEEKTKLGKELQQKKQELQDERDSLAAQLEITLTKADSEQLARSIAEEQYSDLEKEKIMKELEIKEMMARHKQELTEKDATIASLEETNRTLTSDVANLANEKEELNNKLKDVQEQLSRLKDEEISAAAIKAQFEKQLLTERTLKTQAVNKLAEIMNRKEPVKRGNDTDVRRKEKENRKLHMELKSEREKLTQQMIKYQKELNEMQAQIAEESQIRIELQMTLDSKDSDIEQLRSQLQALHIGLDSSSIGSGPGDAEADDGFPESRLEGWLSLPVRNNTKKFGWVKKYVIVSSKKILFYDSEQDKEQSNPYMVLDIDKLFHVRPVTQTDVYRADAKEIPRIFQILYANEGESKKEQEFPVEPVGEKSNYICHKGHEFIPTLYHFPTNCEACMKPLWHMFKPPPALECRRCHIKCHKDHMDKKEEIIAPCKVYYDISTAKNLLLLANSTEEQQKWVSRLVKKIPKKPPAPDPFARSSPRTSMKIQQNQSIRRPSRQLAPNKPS

Only a part is listed here, and it is no random draw. The source made the active and inactive calls.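 The calls were made as follows: active = inhibition above the screen-wide mean inhibition plus 3 SD (cut at about 18% in these data); inactive = the rest.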

What is called inhibition is the change of the read-out against control, counted positive when it falls.

The target of this test is Rho-associated protein kinase 2 (Homo sapiens) (UniProt O75116). The experiment in a line: inhibitors of human ROCK2 kinase, primary screen, biochemical, high-throughput, luminescence (AID 604).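 Also: plate controls were DMSO wells for no effect and Y-27632 control wells after no-enzyme background subtraction for full effect.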 Particulars: purified ROCK2, Kinase-Glo ATP depletion luminescence; at 6 µM; stronger effect = higher value. A general note: Kinase-Glo reads ATP consumption through a luciferase reaction.
As to `COc1ccc(NC2CCN(CCc3ccccc3)CC2)c(OC)c1`, the inhibition is inactive: 0.3%.
As for `O=C(OC1CN2CCC1CC2)C1c2ccccc2Oc2ccccc21` (configuration not stated), the figure is inactive: 6%.
As for `N#CC1(Nc2ccccc2)CCN(CCc2ccccc2)CC1`, the figure is inactive: 4.9%; as for `N/C(=N\O)c1c(N)no[n+]1[O-]`, inactive: 6%.
As for `CCC(CO)(C(=O)OC1CN2CCC1CC2)c1ccccc1` (configuration not stated), the figure is inactive: -1.3%; as for `CCOc1ncccc1C(=O)NCC1(N2CCOCC2)CCCCC1`, inactive: 4.6%.
Consider `Fc1ccccc1NC1CCN(Cc2ccccc2)CC1`, for which the inhibition is inactive: 7.2%.
